PubChem BioAssay (NCATS)
This is a selection; strong and weak results do not stand in their true shares. Records with an inconclusive call do not appear. Active and inactive are the calls of the source. Calls follow the shape of the dose curve; as a rule, active = well fitted curve in the direction sought with a large enough effect; inconclusive = small, poorly fitted or top-dose-only effect, or another doubt; inactive = no such curve, though single readings can be large; an effect the other way counts as inactive or inconclusive.

Experiments:
[1] = Cell Viability - LYMP1-002 - Assay at 16 hr (AID 948); settings: LYMP1-002 lymphoblastoid cell viability; at 92.2 µM (top of the series);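 also: 0% = DMSO alone and full effect = 92 µM tetraoctylammonium bromide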
How it was run: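 Acute cytotoxicity is scored as a concentration-dependent fall in intracellular ATP in a human lymphoblastoid line (LYMP1-002) after 16 hr compound exposure at 37 C, measured by luciferase luminescence.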

[2] = MultiTox-Fluor Cytotoxicity Assay - LYMP1-002 - Live Cells (AID 955); settings: LYMP1-002 lymphoblastoid live-cell protease fluorescence viability; at 46.1 µM (top of the series);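 also: cells exposed to compound for 16 hours; % is scaled to controls: 0 for no effect and ±100 for the full control effect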
How it was run: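 Human lymphoblastoid LYMP1-002 cells, 2500/well, treated 16 h at 37 C in complete medium. Live-cell protease activity via GF-AFC fluorescence (Ex/Em 405/510) after 60 min reagent incubation; AC50 from Hill fits.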

[3] = MultiTox-Fluor Cytotoxicity Assay - LYMP1-002 - Dead Cells (AID 960); settings: LYMP1-002 lymphoblastoid cells, dead-cell protease fluorescence; at 46.1 µM (top of the series);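 also: cells exposed to compound for 16 h at 37 °C; 0% = DMSO and 100% = tetraoctylammonium bromide; nearly all actives have a fitted effect of over 60% in size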
How it was run: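 Human lymphoblastoid LYMP1-002 cells, 2500/well, treated 16 h at 37 C; dead-cell protease cleavage of bis-AAF-R110 read by fluorescence (485/520); normalized to DMSO and 15 uM tetraoctylammonium bromide; AC50 from Hill fit.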

[4] = MultiTox-Fluor Cytotoxicity Assay - LYMP1-003 - Dead Cells (AID 961); settings: LYMP1-003 lymphoblastoid cells, dead-cell protease fluorescence; at 92.2 µM (top of the series);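 also: cells exposed to compound for 16 h at 37 °C; 0% = DMSO and 100% = tetraoctylammonium bromide; nearly all actives have a fitted effect of over 70% in size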
How it was run: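 Human lymphoblastoid LYMP1-003 cells (2500/well) were treated with compounds for 16 hr at 37 C in complete medium. Dead-cell protease release was read by bis-AAF-R110 fluorescence (Ex/Em 485/520). AC50 came from Hill fits, normalized to DMSO and 15 uM tetraoctylammonium bromide.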

[5] = MultiTox-Fluor Cytotoxicity Assay - LYMP1-003 - Live Cells (AID 962); settings: LYMP1-003 lymphoblastoid cells, MultiTox-Fluor live-cell protease fluorescence; at 92.2 µM (top of the series);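 also: cells exposed to compound for 16 hours at 37 °C; 0% = DMSO only and full loss = 92 µM tetraoctylammonium bromide; cytotoxic hits lower the live-cell protease signal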
How it was run: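 LYMP1-003 lymphoblastoid cells, 2500/well in complete medium, treated 16 h at 37 C; live-cell protease cleavage of GF-AFC read by fluorescence (Ex/Em 405/510) after 60 min reagent; AC50 from Hill fits of concentration-response.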

[6] = Cell Viability - LYMP1-003 - Assay at 24 hr (AID 963); settings: LYMP1-003 lymphoblastoid cell viability; at 92.2 µM (top of the series);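 also: plate controls were DMSO only for no effect and tetraoctylammonium bromide positive control for full effect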
How it was run: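 Human lymphoblastoid LYMP1-003 cells, 2500/well, treated 24 h at 37 C in complete medium. Viability read as intracellular ATP by CellTiter-Glo luminescence after 30 min at room temperature; AC50 from Hill-equation fits of qHTS concentration-response.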

[7] = Cell Viability - LYMP1-003 - Assay at 40 hr (AID 964); settings: LYMP1-003 lymphoblastoid viability; at 92.2 µM (top of the series); also: % is scaled to controls: 0 for no effect and ±100 for the full control effect; nearly all actives have a fitted effect of over 60% in size
How it was run: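 LYMP1-003 human lymphoblastoid cells, 2500/well, preincubated 5 h at 37 C, then treated with compound for 40 h at 37 C. Intracellular ATP read by CellTiter-Glo luminescence after 30 min at room temperature; AC50 from Hill-equation fits.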

[8] = Cell Viability - LYMP2-003 (AID 965); settings: LYMP2-003 lymphoblastoid cell viability; at 92.2 µM (top of the series);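 also: cells exposed to compounds for 24 h before reading; 0% = DMSO only and full effect = 92 µM tetraoctylammonium bromide; nearly all actives have a fitted effect of over 50% in size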
How it was run: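 Acute cytotoxicity is scored as a concentration-dependent drop in intracellular ATP, measured by luciferase luminescence in human lymphoblastoid cells treated for 24 hours at 37 C. AC50 values derive from Hill-equation modelling.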

[9] = Cell Viability - LYMP2-004 (AID 966); settings: LYMP2-004 lymphoblastoid cell viability, qHTS; at 92.2 µM (top of the series);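 also: plate controls were DMSO only for no effect and tetraoctylammonium bromide control for full effect; nearly all actives have a fitted effect of over 65% in size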
How it was run: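 Lymphoblastoid LYMP2-004 cells, 2500 per well, were preincubated for 5 hr and then treated with compound for 24 h at 37 C in complete medium. Viability was read as cellular ATP by CellTiter-Glo luminescence, and AC50 values were taken from Hill fits to concentration-response data.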

[10] = Cell Viability - LYMP2-005 (AID 967); settings: LYMP2-005 lymphoblastoid cell viability; at 92.2 µM (top of the series);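 also: plate controls were DMSO only for no effect and 92 µM tetraoctylammonium bromide control for full effect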
How it was run: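 qHTS viability screen in LYMP2-005 cells: 24 h at 37 C with compound, ATP luminescence via CellTiter-Glo, AC50 from Hill curves.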

[11] = Cell Viability - LYMP2-009 (AID 968); settings: LYMP2-009 lymphoblastoid cell viability; at 92.2 µM (top of the series);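 also: 0% = DMSO alone and the full-kill end = tetraoctylammonium bromide at 92 µM; nearly all actives have a fitted effect of over 55% in size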
[12] = Cell Viability - LYMP2-011 (AID 969); settings: LYMP2-011 lymphoblastoid cells viability; at 92.2 µM (top of the series);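 also: 0% = DMSO only and full inhibition = 92 µM tetraoctylammonium bromide; nearly all actives have a fitted effect of over 60% in size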
How it was run: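 2500 cells/well in complete medium, compound-treated 24 h at 37 C. Viability read as intracellular ATP by CellTiter-Glo luminescence after 30 min at room temperature. AC50 from Hill fits of qHTS concentration-response data.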

[13] = Cell Viability - LYMP2-013 (AID 970); settings: LYMP2-013 lymphoblastoid cells viability; at 92.2 µM (top of the series);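 also: 0% = DMSO only and full inhibition = tetraoctylammonium bromide control; nearly all actives have a fitted effect of over 55% in size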
How it was run: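 Human lymphoblastoid LYMP2-013 cells, 2500/well, treated 24 h at 37 C in complete medium; viability as intracellular ATP by CellTiter-Glo luminescence after 30 min. AC50 from Hill fits of qHTS concentration-response.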

[14] = Cell Viability - LYMP2-015 (AID 971); settings: LYMP2-015 lymphoblastoid cell viability; at 92.2 µM (top of the series);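 also: 0% = DMSO only and full effect = 92 µM tetraoctylammonium bromide; nearly all actives have a fitted effect of over 55% in size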
How it was run: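 LYMP2-015 human lymphoblastoid cells (2500/well) in complete medium, compound-treated 24 h at 37 C; viability read as cellular ATP by CellTiter-Glo luminescence after 30 min at room temperature. AC50 from Hill-equation fits of qHTS concentration-response data.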

[15] = Cell Viability - LYMP2-017 (AID 972); settings: LYMP2-017 lymphoblastoid cell viability; at 92.2 µM (top of the series); also: % is scaled to controls: 0 for no effect and ±100 for the full control effect; nearly all actives have a fitted effect of over 55% in size
How it was run: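 LYMP2-017 human lymphoblastoid cells (2500/well) settled 5 hr at 37 C, then exposed to compound 24 hr at 37 C in complete medium. Viability taken as intracellular ATP by CellTiter-Glo luminescence after 30 min at RT; AC50 from Hill fits.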

[16] = Cell Viability - LYMP2-019 (AID 973); settings: LYMP2-019 lymphoblastoid cell line viability; at 92.2 µM (top of the series)
How it was run: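 Human lymphoblastoid LYMP2-019 cells (2500/well) preincubated 5 h at 37 C, then treated 24 h at 37 C in complete medium. Viability by CellTiter-Glo ATP luminescence after 30 min at room temperature; AC50 from Hill fits.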

[17] = Cell Viability - LYMP2-021 (AID 974); settings: LYMP2-021 lymphoblastoid cells viability; at 92.2 µM (top of the series)
How it was run: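 Human lymphoblastoid LYMP2-021 cells, 2500/well in complete medium, treated 24 hours at 37 C. Intracellular ATP by CellTiter-Glo luminescence (30 min, RT); AC50 from Hill fits of concentration-response.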

[18] = Cell Viability - LYMP2-023 (AID 975); settings: LYMP2-023 lymphoblastoid cell viability; at 92.2 µM (top of the series)
How it was run: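 LYMP2-023 human lymphoblastoid cells, 2500/well, preincubated 5 hr at 37 C, then compound-treated 24 hr at 37 C in complete medium. CellTiter-Glo luminescence (ATP) after 30 min at room temperature; AC50 from Hill-equation fits; tetraoctylammonium bromide positive control.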

[19] = Cell Viability - LYMP2-025 (AID 976); settings: LYMP2-025 lymphoblastoid cell viability; at 92.2 µM (top of the series);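 also: plate controls were DMSO only for no effect and tetraoctylammonium bromide control for full effect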
How it was run: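 Human lymphoblastoid LYMP2-025 cells, 2500/well, exposed 24 h at 37 C in complete medium in 1536-well qHTS. Viability as cellular ATP by CellTiter-Glo luminescence; AC50 from Hill fits of concentration-response data.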

[20] = Cell Viability - LYMP2-002 (AID 977); settings: LYMP2-002 lymphoblastoid cell viability, qHTS; at 92.2 µM (top of the series);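 also: compound exposure lasted 24 h at 37 °C; plate controls were DMSO only for no effect and 92 µM tetraoctylammonium bromide for full effect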
How it was run: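 Human lymphoblastoid LYMP2-002 cells, 2500 per well, exposed to compounds for 24 h at 37 C in complete medium; viability read as intracellular ATP by CellTiter-Glo luminescence, AC50 from Hill fits.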

CCOP(=O)(Cl)Cl
inactive: activity change, negative = cytotoxicity [1] -1.49% | viability change, negative = cytotoxic [2] 1% | cytotoxicity (dead cells) [3] 0.886% | cytotoxicity (dead cells) [4] -1.57% | activity change, negative = fewer live cells [5] -1.9% | viability change, negative = cytotoxic [6] -3.94% | activity change, negative = cytotoxic [7] -7.35% | activity change, negative = cytotoxicity [8] 13.8% | activity change, negative = cytotoxicity [9] 6.93% | activity change, negative = viability loss [10] -1.74% | activity change, negative = viability loss [11] -16.2% | viability change, negative = cytotoxic [12] -2.9% | activity change, negative = cytotoxic [13] -2.09% | activity change, negative = lower viability [14] -9.05% | activity change, negative = cytotoxicity [15] -11.4% | activity change, negative = cytotoxicity [16] -4.91% | activity change, negative = cytotoxicity [17] -8.02% | activity change, negative = cytotoxicity [18] -1.88% | activity change, negative = cytotoxicity [19] -13.2% | activity change, negative = cytotoxic [20] -1.1%

ClCCOP(OCCCl)OCCCl
inactive: activity change, negative = cytotoxicity [1] -3.05% | viability change, negative = cytotoxic [2] -0.164% | cytotoxicity (dead cells) [3] 5.2% | cytotoxicity (dead cells) [4] -4.21% | activity change, negative = fewer live cells [5] -2.04% | viability change, negative = cytotoxic [6] 2.91% | activity change, negative = cytotoxic [7] -0.643% | activity change, negative = cytotoxicity [8] 0.407% | activity change, negative = cytotoxicity [9] -1.94% | activity change, negative = viability loss [10] 0.283% | activity change, negative = viability loss [11] -2.5% | viability change, negative = cytotoxic [12] -4.24% | activity change, negative = cytotoxic [13] -6.33% | activity change, negative = lower viability [14] -12.7% | activity change, negative = cytotoxicity [15] -16.5% | activity change, negative = cytotoxicity [16] -3.9% | activity change, negative = cytotoxicity [17] -3.77% | activity change, negative = cytotoxicity [18] -1.04% | activity change, negative = cytotoxicity [19] -8.88% | activity change, negative = cytotoxic [20] -5.85%
